Assay: Stability in air of reduced BTMAPAQ isomers (with and without captured CO2) tracked by 1H NMR
[1] = with captured CO2, D2O, 1 M KCl, air exposure

Row | SMILES | air stability (1H NMR spectra unchanged) [1] | air stability (1H NMR spectra unchanged) (without captured CO2, D2O, 1 M KCl, air exposure) | air stability (1H NMR spectra unchanged) (with captured CO2, D2O, 1 M TBABr, air exposure over nine days)
1 | C[N+](C)(C)CCCOc1ccc(OCCC[N+](C)(C)C)c2c1C(=O)c1ccccc1C2=O [1,4-BTMAPAQ] | good air stability over the first two days | excellent air stability over the first two days | –
2 | C[N+](C)(C)CCCOc1cccc2c1C(=O)c1cccc(OCCC[N+](C)(C)C)c1C2=O [1,5-BTMAPAQ] | great air stability over the first two days | – | –
3 | C[N+](C)(C)CCCOc1cccc2c1C(=O)c1c(OCCC[N+](C)(C)C)cccc1C2=O [1,8-BTMAPAQ] | – | – | excellent air stability over the first five days

Reference: patent US20250144562A1, “ELECTROCHEMICAL CO2 CAPTURE WITH AIR STABLE REDOX SPECIES” (President and Fellows of Harvard College, priority 2022, published 2025)
